Values of other authors as cited in PMC10569260 (Nature methods, 2023).

Details: cited from earlier work

[Leu^5]-enkephalin
t1/2 of degradation in vivo: < 4 min
